Measured values as given in patent US6126917A, “Epidermal growth factor receptor binding compounds for positron emission tomography” (Hadasit Medical Research Services and Development Ltd., priority 1999, dated 2000).

Sequences of proteins named here, by UniProt entry; tags and fusion partners are left off. Residues count along the entry.
UniProt P00533, 25-1210: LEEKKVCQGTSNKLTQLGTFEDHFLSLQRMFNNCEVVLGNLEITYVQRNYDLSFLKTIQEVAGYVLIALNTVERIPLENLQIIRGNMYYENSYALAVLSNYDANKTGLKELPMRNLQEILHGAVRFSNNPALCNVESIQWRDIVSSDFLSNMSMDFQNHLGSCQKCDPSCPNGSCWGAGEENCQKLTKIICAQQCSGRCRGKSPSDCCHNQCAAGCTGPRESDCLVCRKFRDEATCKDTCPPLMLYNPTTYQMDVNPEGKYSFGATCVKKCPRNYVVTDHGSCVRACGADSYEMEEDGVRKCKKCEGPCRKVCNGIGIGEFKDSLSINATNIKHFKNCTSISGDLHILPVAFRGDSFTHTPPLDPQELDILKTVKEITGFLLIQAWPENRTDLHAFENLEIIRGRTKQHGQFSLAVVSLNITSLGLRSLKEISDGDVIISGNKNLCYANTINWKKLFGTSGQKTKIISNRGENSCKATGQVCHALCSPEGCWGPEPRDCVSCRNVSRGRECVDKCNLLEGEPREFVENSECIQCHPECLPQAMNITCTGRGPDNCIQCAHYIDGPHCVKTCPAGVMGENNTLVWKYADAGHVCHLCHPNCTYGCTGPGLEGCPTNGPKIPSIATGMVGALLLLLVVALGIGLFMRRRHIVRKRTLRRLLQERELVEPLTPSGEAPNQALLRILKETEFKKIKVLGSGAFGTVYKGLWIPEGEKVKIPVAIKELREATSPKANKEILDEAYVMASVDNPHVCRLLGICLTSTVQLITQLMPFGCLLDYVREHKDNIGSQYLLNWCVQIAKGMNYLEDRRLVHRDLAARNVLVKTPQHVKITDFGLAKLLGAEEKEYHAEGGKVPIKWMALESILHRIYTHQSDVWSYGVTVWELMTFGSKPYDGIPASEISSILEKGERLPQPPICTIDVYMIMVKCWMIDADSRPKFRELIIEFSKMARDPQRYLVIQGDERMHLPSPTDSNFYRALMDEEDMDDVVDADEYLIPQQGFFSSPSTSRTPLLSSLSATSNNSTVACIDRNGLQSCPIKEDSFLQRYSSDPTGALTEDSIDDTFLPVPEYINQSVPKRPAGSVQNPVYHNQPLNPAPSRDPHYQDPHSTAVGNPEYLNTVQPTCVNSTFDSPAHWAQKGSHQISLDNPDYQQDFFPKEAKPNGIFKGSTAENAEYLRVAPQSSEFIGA

Molecular target: T1, EGFR-TK (Homo sapiens, UniProt P00533)
T1 construct: As a source of EGFR-TK, A431 human epidermoid carcinoma cell lysate was used; endogenous in cells; host or cells: A431 human epidermoid carcinoma cells (Triton X-100 lysate, EGFR captured by monoclonal antibody m108)
Test: EGFR-TK autophosphorylation inhibition (ELISA assay)
Assay type: biochemical
Procedure: Autophosphorylation Inhibition Experiments:
EGFR-TK source: As a source of EGFR-TK, A431 human epidermoid carcinoma cell lysate was used. A431 cells were grown in DMEM containing 10% fetal calf serum and antibiotics penicillin and streptomycin). After several days, the cells were removed from the flasks by incubation at 37° C. with PBS/i mM EDTA buffer for 1 hour. […] Cell lysate was obtained with a further centrifugation (10,000 rpm×10 minutes at 4° C.), and the supernatant was collected and frozen at -70° C. in aliquots.
ELISA assay: EGFR-TK autophosphorylation IC50 values were obtained by means an ELISA assay. All the following incubations were performed at room temperature and with constant shaking. After each step the plate was washed with water (5×) and TBST buffer (1×). The final volume for each well was 150 μl. A Coming 96 well ELISA plate was coated with monoclonal anti EGFR antibody m108 (Sugen Inc.) diluted in PBS (pH 8.2), and kept overnight at 4° C.
After removing the unbound m108, the plate was washed and PBS containing 5% milk (1% fat) was added for the blocking (25 minutes). One aliquot of A431 cell lysate was thawed and added to the plate.
After 25 minutes, seven different concentrations of each inhibitor were added, and for each case one well was left as a control. All inhibitors were diluted in TBS/DMSO and the final concentration of DMSO was 0.05% in each well (including the controls).
After 25 minutes, and without washing the plate, ATP/MnCl2 solution was added in each well. The final concentration was 3 μM ATP/5 mM MnCl2. In this step the temperature was kept at 26° C. and the plate was under constant shaking. The incubation with ATP/MnCl2 was for 5 minutes.
Then, to stop the phosphorylation reaction, EDTA was added (pH 8, final concentration in each well 20 mM) and after 1 minute all the plate was washed.
Afterward, polyclonal anti-phosphotyrosine serum (Sugen, Inc.) was added (dilution of antibody in TBST containing 5% milk). The incubation was for 45 minutes.
For the calorimetric detection of phosphotyrosine in EGFR-TK, TAGO anti-rabbit peroxidase conjugate antibody (Sugen, Inc.) was added in TBST/5% milk solution (45 minutes).
After washing, the colorimetric reaction was performed by adding ABTS/H2 O2 in citrate-phosphate buffer.
The analysis of the data was performed with "Regression" software.
Since the exact concentrations of m108 in the stock solution and EGFR-TK in the cell lysate were unknown, an experiment was performed to determine the optimal dilution of m108 stock and lysate. Stock m108 (approx. 0.2-0.5 μg/μl) was diluted 1:400, 1:600, 1:800 and 1:1000 with PBS, while A431 cell lysate was diluted 1:2, 1:4, 1:6, 1:8, and 1:10.

Structure (SMILES)	IC50 [nM]	IC50 (average ± SEM, A431 cell lysate, 3 μM ATP/5 mM MnCl2, Table 1, read-out: Autophosphorylation IC50) [nM]	IC50 (read-out: IC50 toward epidermal growth factor receptor tyrosine kinase activity (autophosphorylation)) [nM]	IC50 compared with the values for AG 1478 and PD 153035 (relative to AG 1478 and PD 153035)
COc1cc2ncnc(Nc3cccc(Cl)c3)c2cc1OC [AG 1478, reference compound]	0.79 ± 0.26			
COc1cc2ncnc(Nc3cccc(F)c3)c2cc1OC [Compound 2, 4-[(3-Fluorophenyl)amino]-6,7-dimethoxyquinazoline]		19.8 ± 8.2	19.8	higher by two orders of magnitude

Read-outs that look alike come from different tables or passages of the source.
